Assay results reported in US10093635B2, “MAGL inhibitors” (ABIDE THERAPEUTICS, INC., priority 2016, dated 2018).

Protein sequences, listed by entry. Tags and fused reporters are not part of them.
UniProt O35678, whole entry: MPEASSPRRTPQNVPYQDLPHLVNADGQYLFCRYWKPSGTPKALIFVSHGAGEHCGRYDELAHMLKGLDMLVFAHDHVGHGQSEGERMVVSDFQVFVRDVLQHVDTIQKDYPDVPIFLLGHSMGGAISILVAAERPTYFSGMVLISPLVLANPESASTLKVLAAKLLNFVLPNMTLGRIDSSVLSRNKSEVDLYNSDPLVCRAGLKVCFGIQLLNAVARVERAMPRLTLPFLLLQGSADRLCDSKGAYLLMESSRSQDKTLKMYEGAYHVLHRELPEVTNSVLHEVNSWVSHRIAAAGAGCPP

Biological target: MGLL (Mus musculus (Mouse), UniProt O35678)
Assay: in vivo
Conditions: po, read-out: MGLL % Inhibition at 5 mg/kg (Mouse)

inhibition at 5 mg/kg: 25 to 75%
SMILES: CS(=O)(=O)N(CCNc1cc(Cl)ccc1CN1CCN(C(=O)OC(C(F)(F)F)C(F)(F)F)CC1)CC(=O)O [Example 12, N-(2-((5-Chloro-2-((4-(((1,1,1,3,3,3-hexafluoropropan-2-yl)oxy)carbonyl)piperazin-1-yl)methyl)phenyl)amino)ethyl)-N-(methylsulfonyl)glycine]
